Test results as given in US11103557.

Biological target: GLP-1 receptor
Assay: cell-based or functional assay

Exenatide (Exendin-4) (peptide)
EC50 (nM), activity on GLP-1 receptor (CRE luciferase reporter): 0.112 nM
